Results as given in the supplement of paper PMC10920090.

Key:
MDA-MB-231 [1] = assay: drug sensitivity score (DSS), cell viability CellTiter-Glo; higher = more sensitive; extreme values may be limits of the assay; details: 72 h
MDA-MB-231 [2] = assay: drug sensitivity score (DSS), cytotoxicity CellTox Green; higher = more cytotoxic; extreme values may be limits of the assay; details: 72 h
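Wherever drug sensitivity score (DSS), cytotoxicity CellTox Green is given: DSS summarises each dose–response curve by combining IC50, EC50, maximal inhibition and efficacy across drug concentrations.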

NCc1ccc(OCCCc2sc(-c3ccc4c(c3)/C(=N/Nc3nc5ccccc5s3)CCC4)nc2C(=O)O)cc1 [WEHI-539]
drug sensitivity score (MDA-MB-231 [1]; shRNA: shPPFIA1_1): 1.6 DSS
drug sensitivity score (MDA-MB-231 [1]; shRNA: shScramble): 1 DSS
drug sensitivity score (MDA-MB-231 [2]; shRNA: shPPFIA1_1): 5.6 DSS
drug sensitivity score (MDA-MB-231 [2]; shRNA: shScramble): 2.5 DSS
